Tests used:
Settings in all cases: mouse, in vivo
[1] = system: NF-kB p65, TNF-α, IL-4, CD4, Foxp3
[2] = system: oxazolone-induced colitis
[3] = system: oxazolone-induced colitis; remark: listed apart in the source

Nc1ccc(O)c(C(=O)O)c1 [5-ASA, 5-aminosalicylic acid]
colon expression of TNF-α, NF-kB, IL-4, CD4, Foxp3 by IHC [1]: did not elicit any significant effect | histopathological severity score [2]: but not 5-ASA treatment | oxazolone-induced decrease in body weight [2]: attenuated | oxazolone-induced increase in colon weight [2]: ameliorated | colon weight/length ratio [3]: ameliorated | oxazolone-induced body weight loss [3]: significantly attenuated

Source: US11160869B2 (priority 2019, dated 2021)
